Legend:
[1] = system: 15-PGDH protein; assay: Western blot of 15-PGDH protein levels in treated cell lines; assay type: cell-based; details: V400-S3-2-32 cells, 5 μM
[2] = system: A549 cells; assay: PGE2 levels in medium of IL1-beta stimulated A549 cells; assay type: cell-based; details: IL1-beta 23 hours, compound added for last 5 hours
[3] = biological target: recombinant 15-PGDH (Homo sapiens (Human), UniProt P15428); assay: Thermal melt shift of recombinant 15-PGDH protein (SYPRO Orange); assay type: binding; details: 10 μM and 100 μM cofactor NAD or NADH
[4] = system: 15-PGDH activity in cell lines; assay: Total 15-PGDH activity in lysed pellets of compound treated cell lines (tritium method); assay type: cell-based; details: FIG. 13

Sequences of proteins named here, by UniProt entry; tags and fusion partners are left off.
UniProt P15428, whole entry: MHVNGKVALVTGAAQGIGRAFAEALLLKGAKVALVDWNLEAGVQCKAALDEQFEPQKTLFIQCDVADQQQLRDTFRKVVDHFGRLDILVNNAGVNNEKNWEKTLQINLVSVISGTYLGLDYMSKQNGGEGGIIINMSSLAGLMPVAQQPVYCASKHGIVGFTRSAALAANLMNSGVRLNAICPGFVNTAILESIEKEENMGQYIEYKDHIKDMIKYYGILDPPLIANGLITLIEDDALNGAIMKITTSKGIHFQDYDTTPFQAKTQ

COc1ccc(-c2cc(C(F)(F)F)n3nc(C(=O)N4CCCCC4)cc3n2)cc1
levels of 15-PGDH protein (wt-PGDH) expressed from cDNA vector [1]: increases levels of 15-PGDH protein (wt-PGDH)
PGE2 level in medium, reflecting 15-PGDH activity [2]: clear inhibition of 15-PGDH activity
direct binding to 15-PGDH by melting temperature shift [3]: show evidence of direct binding to 15-PGDH
15-PGDH activity in treated cells [4]: increasing 15-PGDH activity in most cell lines

Reference: US10869871B2, “Compositions and methods of modulating short-chain dehydrogenase activity” (CASE WESTERN RESERVE UNIVERSITY, priority 2013, dated 2020)
